Measurements taken from US5869457A, “Modified proteins and their use for controlling viral infections” (Rijksuniversiteit Te Groningen, priority 1991, dated 1999).

Columns and labels:
[1] = test system: plasma; assay: anticoagulant action determined as APTT; type: biochemical
Description: The compounds were dissolved in PBS of pH 7.2 and 30 μl were added to 270 μl of plasma.
APTT=activated partial thromboplastin time (seconds) APTT was determined electromechanically using standard methods.

[2] = test system: HSV-2; type: cell-based
[3] = test system: Sindbis; assay: inhibitory effect on replication of RNA viruses: Sindbis; type: cell-based, Sindbis virus
[4] = test system: VSV; type: cell-based
[5] = test system: HSV-1; type: cell-based
[6] = test system: SIV; assay: inhibitory effect on SIV; type: cell-based; design: key: +: activity determined
[7] = test system: CMV; assay: anti-CMV test, plaque formation and cell death in human embryonic lung (HEL) fibroblasts; type: cell-based, human cytomegalovirus (strain AD169 and Davis strain)
[8] = test system: Semliki Forest; assay: inhibitory effect on replication of RNA viruses: Semliki Forest virus; type: cell-based
[9] = test system: VMW; assay: inhibitory effect on DNA viruses: VMW; type: cell-based
[10] = test system: HSV field; assay: inhibitory effect on DNA viruses: HSV field; type: cell-based
[11] = test system: para-influenza; assay: inhibitory effect on replication of RNA viruses: para-influenza virus; type: cell-based
[12] = test system: FIV; assay: anti-FIV test, reverse transcriptase activity in cat thymocytes; type: cell-based
[13] = test system: Reo-virus; assay: inhibitory effect on replication of RNA viruses: reovirus; type: cell-based
[14] = test system: Sendai; assay: Sendai virus: fusion of viral membrane with erythrocyte ghosts, liposomes and cells (R15 dequenching); type: biochemical
[15] = test system: Coxsackie; assay: inhibitory effect on replication of RNA viruses: Coxsackie virus; type: cell-based

Aco-HSA: reaction product of human serum albumin and aconitic anhydride (anhydride of cis- or trans-prop-1-ene-1,2,3-tri-carboxylic acid)
Anticoagulant action, APTT ([1]; 0.01 μg/ml): 36.8 s | Anticoagulant action, APTT ([1]; 0.1 μg/ml): 37.8 s | Anticoagulant action, APTT ([1]; 1 μg/ml): 37.0 s | Anticoagulant action, APTT ([1]; 3 μg/ml): 35.9 s | Anticoagulant action, APTT ([1]; 5 μg/ml): 36.2 s | Anticoagulant action, APTT ([1]; 10 μg/ml): 33.0 s | Anticoagulant action, APTT ([1]; 20 μg/ml): 35.1 s | Anticoagulant action, APTT ([1]; 30 μg/ml): 37.8 s | Anticoagulant action, APTT ([1]; 100 μg/ml): 51.1 s | anticoagulant activity as side effect ([1]; in words): slight anticoagulant activity at high concentrations | Inhibitory effect (IC50 μg/ml) on DNA viruses, HSV-2 [2]: > 400 µg/mL | Inhibitory effect (IC50 μg/ml) on the replication of RNA viruses, Sindbis [3]: > 400 µg/mL | Inhibitory effect (IC50 μg/ml) on the replication of RNA viruses, VSV [4]: > 400 µg/mL | Inhibitory effect (IC50 μg/ml) on DNA viruses, HSV-1 [5]: > 400 µg/mL | Inhibitory effect on retroviruses, SIV [6]: + | Inhibitory effect (IC50 μg/ml) on DNA viruses, CMV [7]: > 400 µg/mL | Inhibitory effect (IC50 μg/ml) on the replication of RNA viruses, Semliki Forest [8]: > 400 µg/mL | Inhibitory effect (IC50 μg/ml) on DNA viruses, VMW [9]: > 400 µg/mL | Inhibitory effect (IC50 μg/ml) on DNA viruses, HSV field [10]: > 400 µg/mL | Inhibitory effect (IC50 μg/ml) on the replication of RNA viruses, para-influenza [11]: > 400 µg/mL | Inhibitory effect (IC50 μg/ml) on retroviruses, FIV [12]: < 0.01 µg/mL | Inhibitory effect (IC50 μg/ml) on the replication of RNA viruses, Reo-virus [13]: > 400 µg/mL | Inhibitory effect (IC50 μg/ml) on the replication of RNA viruses, Sendai [14]: > 400 µg/mL | Inhibitory effect (IC50 μg/ml) on the replication of RNA viruses, Coxsackie [15]: > 400 µg/mL
